Literature values, collected in patent publication US12565475B2, “Small molecule compound inhibiting signal transmission path of TLR7 and TLR9 and use thereof” (AJOU UNIVERSITY INDUSTRY-ACADEMIC COOPERATION FOUNDATION, priority 2019, dated 2026).

The chains behind the UniProt entries cited, without tags or fusion partners. Residues count along the entry.
UniProt Q9NR96, 26-1032 limits assumed: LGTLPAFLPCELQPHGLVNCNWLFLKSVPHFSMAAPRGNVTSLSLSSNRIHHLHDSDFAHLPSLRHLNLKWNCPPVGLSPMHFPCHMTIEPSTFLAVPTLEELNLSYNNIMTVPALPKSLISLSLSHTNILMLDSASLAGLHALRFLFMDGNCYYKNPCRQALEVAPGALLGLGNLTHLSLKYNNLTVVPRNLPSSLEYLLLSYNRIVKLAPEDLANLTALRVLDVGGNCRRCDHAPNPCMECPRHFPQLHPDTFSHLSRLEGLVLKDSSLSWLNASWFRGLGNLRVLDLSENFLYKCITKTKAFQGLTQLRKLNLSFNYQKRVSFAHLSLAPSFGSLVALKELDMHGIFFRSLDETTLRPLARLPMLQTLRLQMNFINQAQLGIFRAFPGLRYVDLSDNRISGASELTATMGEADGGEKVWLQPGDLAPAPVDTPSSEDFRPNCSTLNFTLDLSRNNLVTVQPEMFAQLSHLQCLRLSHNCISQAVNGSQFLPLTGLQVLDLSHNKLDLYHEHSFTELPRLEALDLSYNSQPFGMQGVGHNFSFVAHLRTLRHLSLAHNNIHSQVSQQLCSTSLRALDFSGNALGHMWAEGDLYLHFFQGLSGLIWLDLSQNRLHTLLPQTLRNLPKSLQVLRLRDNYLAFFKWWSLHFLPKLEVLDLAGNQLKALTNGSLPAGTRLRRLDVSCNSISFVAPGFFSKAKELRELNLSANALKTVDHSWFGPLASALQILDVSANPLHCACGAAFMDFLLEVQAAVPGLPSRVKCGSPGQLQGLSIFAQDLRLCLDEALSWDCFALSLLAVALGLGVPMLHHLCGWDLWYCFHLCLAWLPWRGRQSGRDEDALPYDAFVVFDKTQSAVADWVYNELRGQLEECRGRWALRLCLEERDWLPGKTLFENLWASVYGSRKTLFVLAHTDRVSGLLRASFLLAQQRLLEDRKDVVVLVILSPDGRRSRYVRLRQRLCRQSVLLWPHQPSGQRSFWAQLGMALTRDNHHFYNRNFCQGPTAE

Target: TLR9 (Homo sapiens, UniProt Q9NR96)
Details: read-out: Activity (μM), IC50; Target TLR9; values from cited literature/patent; cited from earlier work

COc1cc2nc(-c3ccccc3)nc(N3CCN(CCN4CCCC4)CC3)c2cc1OC
IC50: 0.0534 µM
